This test concerns the target ubiquitin specific peptidase 21 (USP21) (human) (UniProt Q9UK80).

The chains behind the UniProt entries cited, without tags or fusion partners. Where a name states a change or a piece, a line headed by the entry shows the natural chain unless it says otherwise.
UniProt Q9UK80: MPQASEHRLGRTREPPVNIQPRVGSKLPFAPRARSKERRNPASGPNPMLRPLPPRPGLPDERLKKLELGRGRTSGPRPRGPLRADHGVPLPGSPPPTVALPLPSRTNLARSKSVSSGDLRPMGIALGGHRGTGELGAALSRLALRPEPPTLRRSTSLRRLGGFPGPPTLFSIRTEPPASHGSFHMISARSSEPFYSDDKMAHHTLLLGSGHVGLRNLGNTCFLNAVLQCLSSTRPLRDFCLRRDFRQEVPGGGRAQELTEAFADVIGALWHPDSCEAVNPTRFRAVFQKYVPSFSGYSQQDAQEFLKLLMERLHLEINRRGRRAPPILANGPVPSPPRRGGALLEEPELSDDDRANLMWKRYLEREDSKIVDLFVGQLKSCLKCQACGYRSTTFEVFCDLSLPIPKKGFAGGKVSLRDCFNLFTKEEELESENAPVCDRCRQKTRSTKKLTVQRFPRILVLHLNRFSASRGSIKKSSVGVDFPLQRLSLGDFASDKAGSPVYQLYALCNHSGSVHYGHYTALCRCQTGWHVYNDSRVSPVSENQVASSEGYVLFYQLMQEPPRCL

For 1 substance, IC50 of inhibition of USP21 activity (Ub-AMC hydrolysis) results are on record in article PMC4956399.

Substance “wild-type human ubiquitin (from UniProt P0CG47 1-76) (natural protein)” had an IC50 of inhibition of USP21 activity (Ub-AMC hydrolysis) of 18 µM.
